The values below come from patent US6953785B2, “Estra-1,3,5(10)-triene derivatives” (priority 2000, dated 2005).

Protein sequences, listed by entry. Tags and fused reporters are not part of them. Residues count along the entry.
UniProt P08842, 22-583 limits assumed: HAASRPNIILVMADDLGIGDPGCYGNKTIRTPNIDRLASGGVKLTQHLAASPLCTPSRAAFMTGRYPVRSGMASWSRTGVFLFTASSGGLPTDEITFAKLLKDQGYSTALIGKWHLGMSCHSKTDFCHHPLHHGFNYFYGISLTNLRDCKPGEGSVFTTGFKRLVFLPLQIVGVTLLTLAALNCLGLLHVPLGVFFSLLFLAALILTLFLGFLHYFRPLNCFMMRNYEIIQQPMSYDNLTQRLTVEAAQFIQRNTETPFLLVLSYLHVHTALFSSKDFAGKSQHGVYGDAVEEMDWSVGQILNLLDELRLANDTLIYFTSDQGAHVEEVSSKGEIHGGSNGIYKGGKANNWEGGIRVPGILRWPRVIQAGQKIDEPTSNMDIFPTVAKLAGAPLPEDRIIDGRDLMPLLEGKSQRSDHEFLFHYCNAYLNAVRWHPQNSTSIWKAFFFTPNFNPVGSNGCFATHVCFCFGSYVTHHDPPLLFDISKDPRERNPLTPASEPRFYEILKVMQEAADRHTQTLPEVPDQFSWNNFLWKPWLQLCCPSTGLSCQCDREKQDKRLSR

The target of the test is recombinant human estrone sulfatase (Homo sapiens, UniProt P08842). The test is described as follows: Estrone sulfatase (steroid sulfatase) inhibition test (Method B), 4-methylumbelliferyl sulfate substrate. The following applies: read-out: Inhibitory Activity against Steroid Sulfatase IC50, 4-methylumbelliferyl sulfate 0.3 mmol/L, pH 7.5, 37° C., 1 hour. On the procedure: Estrone Sulfatase (Steroid Sulfatase) Inhibition Test (Method B)
4-Methylumbelliferyl sulfate (final concentration 0.3 mmol/L), recombinant human estrone sulfatase (7.8 ng/well) and an estra-1,3,5(10)-triene derivative of each test concentration (the estra-1,3,5(10)-triene derivative was dissolved in 0.001 mL of DMSO) were added to a phosphate buffer (pH 7.5, final volume 0.1 mL) containing 0.28 mol/L of sucrose and 0.04 mol/L of nicotinamide, and the mixture was subjected to enzymatic reaction at 37° C. for 1 hour. The recombinant human estrone sulfatase used herein was prepared from CHO (Chinese hamster ovary) cells, which were transfected with a human estrone sulfatase gene, after partial purification. After the enzymatic reaction, an aqueous solution of 2 mol/L glycine-sodium hydroxide (pH 10.3, 0.13 mL) was added thereto followed by stirring. Using a fluorescent plate reader (Cyto Fluor II), the fluorescent intensity of 4-methylumbelliferone formed in the system was measured. The measurement was carried out at one time by duplication, and the assay fluctuation was 10% or less. The enzymatic reaction in the absence of the test compound was also carried out simultaneously. The inhibitory activity against estrone sulfatase of the test compound of each concentration was calculated according to the equation shown below. […]

Consider `CC(C)(O)C1=CCC2C3CCc4cc(OS(N)(=O)=O)ccc4C3CCC12C` (stereo not shown), for which the IC50 is 13 nM.
